# Assay results taken from patent US4916223A, “Substituted hexahydroarylquinolizines” (Merck & Co., Inc., priority 1989, dated 1990).
# Tests used:
# central α2-adrenoceptors = assay: In vivo antagonism of clonidine-induced mydriasis; parameters: species or system rat (Sprague-Dawley); conditions: for Antagonism of Clonidine Induced Mydriasis (ED2X): anesthetized rats, pretreated 5 minutes before i.v. clonidine, dose causing doubling of clonidine ED50, N=4/group
# Experimental: Administration of clonidine to rat produces mydriasis by an α2 -adrenergic mechanism in the central nervous system as reported by Koss et al., Naunyl-Schmiedeberg's Arch. […] Ophthal. […] Antagonism of the mydriatic action of clonidine was used as an in vivo test to examine the ability of the compounds to penetrate the central nervous system and antagonize α2 -adrenoceptors in the rat.
# Adult male Sprague-Dawley rats (250-450 g) were anesthetized with chloral hydrate (120-160 mg/kg i.p.), and a femoral vein was cannulated for drug administration. Body temperature was maintained at 37° C.±0.5. The eye was illuminated using a light with green filters to provide added contrast to aid in visualization of the iris. Pupil diameter was measured using a dissecting microscope containing an ocular micrometer with a resolution of 0.1 mm.
# Five minutes was allowed to elapse between successive doses of clonidine, and pupil diameter was determined immediately prior to the injection of the next dose of clonidine. The dose of clonidine required to cause 50% of the maximum increase in diameter of the pupil was determined for each rat, using logarithmic linear regression analysis. […] The potency of antagonists was expressed as ED2X values, i.e. the calculated dose of antagonist required to cause a doubling in the ED50 value for clonidine.
# [1] = target: T1, peripheral α2-adrenoceptors (Rattus norvegicus, UniProt P22909); assay: Peripheral versus central α2-adrenoceptor selectivity, vas deferens compared with mydriasis data; conditions: relative to yohimbine
# T1 construct: isolated, field-stimulated rat vas deferens is utilized as an in vitro model; from tissue; host or cells: rat vas deferens (isolated, field-stimulated)
# T1 sequence (P22909 1-465): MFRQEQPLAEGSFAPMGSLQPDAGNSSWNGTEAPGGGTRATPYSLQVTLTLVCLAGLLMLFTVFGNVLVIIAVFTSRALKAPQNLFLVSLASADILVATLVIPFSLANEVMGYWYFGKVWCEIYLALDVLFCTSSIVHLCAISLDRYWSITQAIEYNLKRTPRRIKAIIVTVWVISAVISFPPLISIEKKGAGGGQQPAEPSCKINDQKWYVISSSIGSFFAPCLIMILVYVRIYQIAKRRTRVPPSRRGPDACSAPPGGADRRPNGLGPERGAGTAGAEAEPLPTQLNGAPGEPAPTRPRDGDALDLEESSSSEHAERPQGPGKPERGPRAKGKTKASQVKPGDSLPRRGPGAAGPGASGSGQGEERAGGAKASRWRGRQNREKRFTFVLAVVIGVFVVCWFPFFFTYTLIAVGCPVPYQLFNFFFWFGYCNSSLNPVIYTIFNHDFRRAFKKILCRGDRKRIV
# [2] = target: T1, peripheral α2-adrenoceptors; assay: In vitro field-stimulated rat vas deferens test: antagonism of clonidine (Schild analysis, pA2); type: cell-based
# From the text: In the test, isolated, field-stimulated rat vas deferens is utilized as an in vitro model to determine the potency and selectivity of compounds toward the various α-adrenoceptor subtypes. Selective α2 -adrenoceptor agonists such as clonidine reduce the magnitude of neurogenic contractions in the peripheral smooth muscle by reducing the stimulated release of norepinephine through the activation of presynaptic α2 -adrenoceptors on the noradrenergic nerve terminals.
# The vas deferens from rats weighing 250-350 grams were freed of connective and fatty tissue and suspended between two platinum electrodes in an organ bath under 0.5 gram tension. The organ bath contained Tyrode's solution which was bubbled with 5% CO2 and 95% O2 and stimulated with square wave pulses at 0.1 Hz, 0.3 msec in duration and supramaximal voltage (30-50 V). Contractile responses were recorded. α2 -Agonist drug (clonidine) was added cumulatively to the bath and EC50 values determined by regression analysis. […] Computation of the pA2 value was performed using the formula: pA2 =pAx +log (x-1), where pAx is the negative logarithm of the molar concentration of antagonist and x is the dose ratio of EC50 values for the agonist before and after addition of the antagonist.
more selective for the periphery than yohimbine [1],"Kb ([2]; isolated field-stimulated rat vas deferens, agonist clonidine, antagonist at least 20 minutes contact)","higher affinity for α2-adrenoceptors than yohimbine ([2]; vas deferens data, relative to yohimbine)",SMILES,Antagonism of Clonidine Induced Mydriasis (ED2X) (central α2-adrenoceptors),less potent in eliciting a response mediated by central α2-adrenoceptors (mydriasis data) (central α2-adrenoceptors; relative to yohimbine)
–,–,–,"COC(=O)[C@@H]1[C@H]2C[C@H]3c4[nH]c5ccccc5c4CCN3C[C@@H]2CC[C@@H]1O [Yohimbine, reference compound]",0.136 mg/kg i.v.,–
about 900 times,3.02 nM,seven,"CS(=O)(=O)NCCN1C(=O)NC[C@]12CCN1CCc3c(oc4ccccc34)[C@@H]1C2 [Arylquinolizine Compound A, (2R,12bS)-3'-(2-methanesulfonamidoethyl)-spiro-[1,3,4,6,7,12b-hexahydrobenzo[b]furo[2,3-a]quinolizin]-2,4'-imidazolidin-2'-one]",18.0 mg/kg i.v.,132 fold
